Values quoted from earlier work, collected in patent US7993638B2, “Cancer treatment combining lymphodepleting agent with CTLs and cytokines” (Janssen Pharmaceutica NV, priority 2006, dated 2011).

Tested on: metastatic melanoma or renal cell cancer
Conditions: cited from earlier work

IL-2: human recombinant interleukin-2, a lymphokine produced by recombinant DNA technology
remission rate (high-dose IL-2, 283 patients): 7%
complete responses (high-dose IL-2, 283 patients, number of responses): 9
most common side effects (human, in vivo): flu-like symptoms
most severe side effects (human, in vivo): hypotension, capillary leak syndrome, and reduced organ perfusion
